Drawing on patent publication US9090596B2, “Disubstituted 3,4-diamino-3-cyclobutene-1,2-dione compounds for use in the treatment of chemokine-mediated pathologies” (GALDERMA RESEARCH & DEVELOPMENT, priority 2011, dated 2015), this text covers Half-dissociation time for one molecule.

Protein sequences, listed by entry. Tags and fused reporters are not part of them.
UniProt P25025, whole entry: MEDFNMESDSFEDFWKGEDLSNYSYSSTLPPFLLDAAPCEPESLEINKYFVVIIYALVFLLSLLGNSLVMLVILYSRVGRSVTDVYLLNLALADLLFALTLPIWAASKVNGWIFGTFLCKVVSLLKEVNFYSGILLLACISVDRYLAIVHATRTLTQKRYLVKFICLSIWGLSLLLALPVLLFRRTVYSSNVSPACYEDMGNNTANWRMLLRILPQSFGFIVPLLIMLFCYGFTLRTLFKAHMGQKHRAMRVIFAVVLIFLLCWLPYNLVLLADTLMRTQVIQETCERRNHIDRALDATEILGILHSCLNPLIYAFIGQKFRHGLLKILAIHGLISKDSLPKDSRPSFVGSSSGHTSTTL

The target in the assay is CXCR2 (Homo sapiens (Human), UniProt P25025). The assay is described as follows: Half-dissociation time, washout β-arrestin recruitment model in PathHunter HEK293-CXCR2 cells. In kind it is cell-based. Conditions: CXCR2, saturating concentration of antagonist, 4 nM CXCL8. On the procedure: The determination of the half-dissociation constants of the CXCR2 antagonists was based on the in vitro β-arrestin recruitment model previously described: “PathHunter HEK293-CXCR2” cells (DiscoveRx Corporation) were seeded overnight at 20 000 cells/well (in a 96-well format) in 100 μl/well of OptiMEM culture medium-1% FCS. A preincubation with the antagonist or the vehicle was carried out for 1 hour at 37° C.-5% CO2. The cells were then washed 3 times with 100 μl/well of OptiMEM culture medium-1% FCS and then a variable incubation (0 h-0.5 h-6 h-12 h-24 h) of the cells at 37° C.-5% CO2 was carried out. The cells were then stimulated with 4 nM of CXCL8 at 37° C.-5% CO2 for 1 h 30 min. […] After incubation for 60 minutes at ambient temperature, the luminescence emitted, via the hydrolysis of the substrate by the β-galactosidase complemented during the β-arrestin-CXCR2 interaction, was measured for 0.3 seconds/well with an Envision Multilabel Reader (PerkinElmer Life and Analytical Sciences). The data were analyzed by means of a non-linear curve procedure using the XLFit4 exploitation software (IDBS) and the IC50 values were determined. The half-dissociation time was determined on a regression of type y=(A*(1−exp(((−1)*B)*x))) (where x=time and y=standardized luminescence) at saturating concentration of antagonist.

In turn, `CC[C@@H](Nc1c(Nc2cccc(C(=O)N(C)C)c2O)c(=O)c1=O)c1ccc(C)o1` [SCH-527123] returned a Half-dissociation time of more than 96 h.
